# Experimental data taken from patent publication US20150190534A1, “COMPOUNDS FOR USE AS POSITRON EMISSION IMAGING AGENTS” (UNIVERSITY OF BERN, priority 2014, published 2015).
# What was measured:
# [1] = mouse, in vivo
# [2] = system: T877A-AR positive C4-2 tumors; conditions: mouse, in vivo
# [3] = system: receptor negative PC-3 tumors; conditions: mouse, in vivo
substance,measurement,setting,value
^18F-fluorodeoxyglucose [^18F-FDG],Bone,[1],38.89 ± 7.72 % ID/g
same,Brain,[1],56.51 ± 15.03 % ID/g
same,Heart,[1],171.45 ± 61.48 % ID/g
same,Intestine,[1],14.57 ± 1.68 % ID/g
same,Kidney,[1],16.05 ± 1.82 % ID/g
same,Liver,[1],11.13 ± 3.34 % ID/g
same,Lung,[1],24.14 ± 5.01 % ID/g
same,Muscle,[1],29.08 ± 10.07 % ID/g
same,Prostate,[1],227.57 ± 126.41 % ID/g
same,Spleen,[1],17.66 ± 6.52 % ID/g
same,Testis,[1],65.97 ± 12.93 % ID/g
same,Urine,[1],1071.94 ± 275.25 % ID/g
same,route of metabolism/excretion,[1],excreted predominantly by the kidney
same,C4-2 Tumor,[2],36.14 ± 8.49 % ID/g
same,PC-3 Tumor,[3],20.78 ± 8.28 % ID/g
